The numbers were not newly measured in PubChem BioAssay AID977610, which cites them from elsewhere.

Experiment in all cases: PubChem AID 977610
For series [1], the target named is phosphoglycerate mutase 1. The note with it: PDB protein-ligand complexes, literature Ki; protein: phosphoglycerate mutase 1; PDB entry 1BQ3.
In another series the target is 6-phosphofructokinase. As to conditions: PDB protein-ligand complexes, literature Ki; protein: 6-phosphofructokinase; PDB entry 1MTO.
The target in series [2] is 5'-deoxy-5'-methylthioadenosine phosphorylase. As to conditions: PDB protein-ligand complexes, literature Ki; protein: 5'-deoxy-5'-methylthioadenosine phosphorylase; PDB entry 1K27.
The target in another series is mta/sah nucleosidase. As to conditions: PDB protein-ligand complexes, literature Ki; protein: mta/sah nucleosidase; PDB entry 1Y6R.
Series [3] has as its target carbamoyl-phosphate synthase. The note with it: PDB protein-ligand complexes, literature Ki; protein: carbamoyl-phosphate synthase; PDB entry 1BXR.
The target of series [4] is beta-hydroxysteroid dehydrogenase. As to conditions: PDB protein-ligand complexes, literature Ki; protein: beta-hydroxysteroid dehydrogenase; PDB entry 1I5R.
The next series deals with metallo-beta-lactamase. As to conditions: PDB protein-ligand complexes, literature Ki; protein: metallo-beta-lactamase; PDB entry 1A7T.
Another series has as its target proline-trna synthetase. The note with it: PDB protein-ligand complexes, literature Ki; protein: proline-trna synthetase; PDB entry 1NJ5.
For the next series, the target named is antibody fab fragment. The note with it: PDB protein-ligand complexes, literature Ki; protein: antibody fab fragment; PDB entry 1IBG.
The target in series [5] is Mevalonate diphosphate decarboxylase(S192A mutant). As to conditions: PDB protein-ligand complexes, literature Ki; protein: Mevalonate diphosphate decarboxylase(S192A mutant); PDB entry 4DPU.
For series [6], the target named is Mevalonate diphosphate decarboxylase. The note with it: PDB protein-ligand complexes, literature Ki; protein: Mevalonate diphosphate decarboxylase; PDB entry 4DPT.
The next series addresses NEURAMINIDASE A. As to conditions: PDB protein-ligand complexes, literature Ki; protein: NEURAMINIDASE A; PDB entry 2YA6.
The next series deals with sialidase. The note with it: PDB protein-ligand complexes, literature Ki; protein: sialidase; PDB entry 1N1T.
In a further series the target is phosphoglycerate kinase. As to conditions: PDB protein-ligand complexes, literature Ki; protein: phosphoglycerate kinase; PDB entry 16PK.
The next series deals with ornithine decarboxylase. As to conditions: PDB protein-ligand complexes, literature Ki; protein: ornithine decarboxylase; PDB entry 1NJJ.
Another series deals with FK506 binding protein. As to conditions: PDB protein-ligand complexes, literature Ki; protein: FK506 binding protein; PDB entry 1J4R.
For series [7], the target named is phosphoenolpyruvate carboxykinase (PEPCK),mutation A467G. The note with it: PDB protein-ligand complexes, literature Ki; protein: phosphoenolpyruvate carboxykinase (PEPCK),mutation A467G; PDB entry 3MOE.
Series [8] deals with phosphoenolpyruvate phosphomutase. As to conditions: PDB protein-ligand complexes, literature Ki; protein: phosphoenolpyruvate phosphomutase; PDB entry 1M1B.
Another series concerns the target coagulation factor xa. The note with it: PDB protein-ligand complexes, literature Ki; protein: coagulation factor xa; PDB entry 1FAX.
The target of series [9] is protein-tyrosine phosphatase 1b. The note with it: PDB protein-ligand complexes, literature Ki; protein: protein-tyrosine phosphatase 1b; PDB entry 1C85.
For another series, the target named is neuraminidase. As to conditions: PDB protein-ligand complexes, literature Ki; protein: neuraminidase; PDB entry 1F8C.
The target of a further series is thrombin. As to conditions: PDB protein-ligand complexes, literature Ki; protein: thrombin; PDB entry 1GJ5.
Series [10] deals with Homocitrate synthase, mitochondrial,HCS. As to conditions: PDB protein-ligand complexes, literature Ki; protein: Homocitrate synthase, mitochondrial,HCS; PDB entry 3MI3.
The next series deals with Homocitrate synthase. As to conditions: PDB protein-ligand complexes, literature Ki; protein: Homocitrate synthase; PDB entry 3A9I.
Series [11] deals with ribulose-1,5 bisphosphate carboxylase/oxygenase. The note with it: PDB protein-ligand complexes, literature Ki; protein: ribulose-1,5 bisphosphate carboxylase/oxygenase; PDB entry 1OZV.
The target of series [12] is deoxyuridine 5'-triphosphate nucleotidohydrolase. The note with it: PDB protein-ligand complexes, literature Ki; protein: deoxyuridine 5'-triphosphate nucleotidohydrolase; PDB entry 1DUD.
The target of the next series is 2-enoyl-coa hydratase. The note with it: PDB protein-ligand complexes, literature Ki; protein: 2-enoyl-coa hydratase; PDB entry 1DUB.
The target of a further series is glutamate racemase. As to conditions: PDB protein-ligand complexes, literature Ki; protein: glutamate racemase; PDB entry 1B74.
Series [13] deals with oxygen-insensitive nad(p)h nitroreductase. As to conditions: PDB protein-ligand complexes, literature Ki; protein: oxygen-insensitive nad(p)h nitroreductase; PDB entry 1KQB.
Series [14] has as its target serine/threonine-protein kinase chk1. The note with it: PDB protein-ligand complexes, literature Ki; protein: serine/threonine-protein kinase chk1; PDB entry 1NVQ.
Another series addresses epoxide hydrolase. As to conditions: PDB protein-ligand complexes, literature Ki; protein: epoxide hydrolase; PDB entry 1EK1.
For a further series, the target named is alkaline phosphatase. The note with it: PDB protein-ligand complexes, literature Ki; protein: alkaline phosphatase; PDB entry 1EW8.
The next series concerns the target metalloproteinase. The note with it: PDB protein-ligand complexes, literature Ki; protein: metalloproteinase; PDB entry 1KUI.
A further series deals with secretase beta. The note with it: PDB protein-ligand complexes, literature Ki; protein: secretase beta; PDB entry 1FKN.
In another series the target is calpain. The note with it: PDB protein-ligand complexes, literature Ki; protein: calpain; PDB entry 1ALW.
Another series deals with xaa-pro aminopeptidase. As to conditions: PDB protein-ligand complexes, literature Ki; protein: xaa-pro aminopeptidase; PDB entry 1N51.
The target of series [15] is retinoic acid receptor rxr-alpha. As to conditions: PDB protein-ligand complexes, literature Ki; protein: retinoic acid receptor rxr-alpha; PDB entry 1FM9.
The target in a further series is thrombin pro. As to conditions: PDB protein-ligand complexes, literature Ki; protein: thrombin pro; PDB entry 1K21.
In series [16] the target is hypoxanthine phosphoribosyltransferase. The note with it: PDB protein-ligand complexes, literature Ki; protein: hypoxanthine phosphoribosyltransferase; PDB entry 1G9T.
Series [17] addresses Alpha-N-acetylgalactosaminidase. As to conditions: PDB protein-ligand complexes, literature Ki; protein: Alpha-N-acetylgalactosaminidase; PDB entry 4DO4.
The target in a further series is isocitrate dehydrogenase. The note with it: PDB protein-ligand complexes, literature Ki; protein: isocitrate dehydrogenase; PDB entry 1GRP.
Series [18] addresses nuclear receptor ror-beta. The note with it: PDB protein-ligand complexes, literature Ki; protein: nuclear receptor ror-beta; PDB entry 1NQ7.
Series [19] deals with hiv-1 protease (hiv-1 pr). The note with it: PDB protein-ligand complexes, literature Ki; protein: hiv-1 protease (hiv-1 pr); PDB entry 1HIV.

pKi: −log10 of the molar value.

As for `O=P(O)(O)OC1C(OP(=O)(O)O)C(OP(=O)(O)O)C(OP(=O)(O)O)C(OP(=O)(O)O)C1OP(=O)(O)O` (stereo not drawn), the pKi in [1] was 5.40. As for `O=P(O)(O)OC[C@H]1O[C@](O)(CO)[C@@H](O)[C@@H]1O`, the negative-log Ki (pKi) on 6-phosphofructokinase was 6.96. For the molecule `CSC[C@H]1N[C@@H](c2c[nH]c3c(N)ncnc23)[C@H](O)[C@@H]1O`, the pKi in series [2] is 9.00; on mta/sah nucleosidase, 10.11. For the molecule `Nc1ncnc2c1ncn2[C@@H]1O[C@H](COP(=O)(O)OP(=O)(O)NP(=O)(O)O)[C@@H](O)[C@H]1O`, the pKi in series [3] is 3.40. Take `C[C@]12CC[C@@H]3c4ccc(O)cc4CC[C@H]3[C@@H]1C[C@H](CCCCCCCCC(=O)OC[C@H]1O[C@@H](n3cnc4c(N)ncnc43)[C@H](O)[C@@H]1O)[C@@H]2O`: in [4], the pKi is 8.52. As for `O=S(=O)(O)CCN1CCOCC1`, the pKi on metallo-beta-lactamase is 1.64. Consider `Nc1ncnc2c1ncn2[C@@H]1O[C@H](COS(=O)(=O)NC(=O)[C@@H]2CCCN2)[C@@H](O)[C@H]1O`, for which, on proline-trna synthetase, the pKi was 7.30. On to `C[C@@H]1O[C@@H](O[C@H]2C[C@@H](O)[C@]3(CO)[C@H]4[C@H](O)C[C@]5(C)[C@@H](C6=CC(=O)OC6)CC[C@]5(O)[C@@H]4CC[C@]3(O)C2)[C@H](O)[C@H](O)[C@H]1O`, for which the pKi at antibody fab fragment is 8.55.

`O=C(O)C[C@@](O)(CF)CCOP(=O)(O)OP(=O)(O)O`: the pKi in series [5] and in series [6] was 7.30 each time. Regarding `CC(=O)N[C@H]1[C@H]([C@H](O)[C@H](O)CO)OC(C(=O)O)=C[C@@H]1O`, the pKi on NEURAMINIDASE A was 5.70; on sialidase it was 3.85. As to `Nc1ncnc2c1ncn2[C@@H]1O[C@H](COP(=O)(O)OP(=O)(O)C(F)(F)CCCC(F)(F)P(=O)(O)O)[C@@H](O)[C@H]1O`, the pKi on phosphoglycerate kinase is 5.22. For the molecule `CN[C@@H]1[C@@H](O)[C@@H](O[C@@H]2[C@@H](O)[C@H](O[C@H]3O[C@H]([C@H](C)O)[C@@H](O)[C@H](O)[C@H]3N)[C@@H](N)C[C@H]2N)OC[C@]1(C)O`, the pKi at ornithine decarboxylase is 2.10. As to `COc1cc(C(F)(F)C(=O)N2CCCC[C@H]2C(=O)O[C@@H](CCCc2ccccc2)CCCc2cccnc2)cc(OC)c1OC`, the pKi at FK506 binding protein was 7.72. In the case of `O=C(O)C(=O)CS(=O)(=O)O`, the pKi was 4.30 in series [7] and 4.66 in [8]. In the case of `CC(=N)N1CC[C@H](Oc2ccc([C@H](Cc3ccc4ccc(C(=N)N)cc4c3)C(=O)O)cc2)C1`, at coagulation factor xa, the negative logarithm of the Ki (pKi) is 7.39.

For the molecule `O=C(O)C(=O)Nc1ccccc1C(=O)O`, in series [9], the pKi is 4.64.

`CC(=O)N[C@H]1[C@H]([C@H](O)[C@H](O)CO)OC(C(=O)O)=C[C@@H]1N`: on neuraminidase, the negative logarithm of the Ki (pKi) is 7.40. Regarding `N=C(N)c1ccc2nc(-c3cccc(-c4ccccc4)c3O)[nH]c2c1`, at thrombin, the pKi was 4.96. Regarding `NCCCC[C@H](N)C(=O)O`, the pKi in series [10] is 5.45; on Homocitrate synthase it was 4.15; in series [11], 1.44. As for `O=c1ccn([C@H]2C[C@H](O)[C@@H](COP(=O)(O)OP(=O)(O)O)O2)c(=O)[nH]1`, in series [12], the pKi was 4.82. With `CC(=O)CC(=O)SCCNC(=O)CCNC(=O)[C@H](O)C(C)(C)COP(=O)(O)OP(=O)(O)OC[C@H]1O[C@@H](n2cnc3c(N)ncnc32)[C@H](O)[C@@H]1OP(=O)(O)O`, the pKi at 2-enoyl-coa hydratase was 5.80. Take `NC(=O)CC[C@@H](N)C(=O)O`: on glutamate racemase, the pKi was 1.30. With `O=C(O)c1ccccc1`, the pKi in series [13] was 4.00.

On to `CN[C@@H]1C[C@H]2O[C@@](C)([C@@H]1OC)n1c3ccccc3c3c4c(c5c6ccccc6n2c5c31)C(=O)NC4=O`, for which the pKi in [14] is 8.25. Take `O=C(Nc1ccc(I)cc1)NC1CCCCC1`: on epoxide hydrolase, the pKi is 7.77. On to `O=C(O)CP(=O)(O)O`, for which the negative-log Ki (pKi) on alkaline phosphatase is 2.26. For the molecule `NC(=O)CC[C@H](NC(=O)[C@@H]1CCC(=O)N1)C(=O)N[C@@H](Cc1c[nH]c2ccccc12)C(=O)O`, the pKi at metalloproteinase is 3.77. Regarding `CC(C)C[C@H](NC(=O)[C@H](CC(N)=O)NC(=O)[C@@H](NC(=O)[C@@H](N)CCC(=O)O)C(C)C)[C@@H](O)C[C@@H](C)C(=O)N[C@@H](C)C(=O)N[C@@H](CCC(=O)O)C(=O)N[C@@H](Cc1ccccc1)C(=O)O`, at secretase beta, the pKi was 8.80. For `O=C(O)[C@@H](S)Cc1ccccc1`, on calpain, the pKi was 6.52. On to `C[C@H](NC(=O)[C@@H]1CCCN1C(=O)[C@@H]1CCCN1C(=O)[C@@H](O)[C@H](N)Cc1ccccc1)C(N)=O`, for which, on xaa-pro aminopeptidase, the negative logarithm of the Ki (pKi) is 4.85. On to `Cc1oc(-c2ccccc2)nc1CCOc1ccc(C[C@H](Nc2ccccc2C(=O)c2ccccc2)C(=O)O)cc1`, for which the pKi in series [15] was 9.00. For the molecule `NC(N)=NCCCNC(=O)[C@@H]1CCCCN1C(=O)[C@@H](CC1CCCCC1)NCC(=O)O`, the pKi at thrombin pro was 8.38.

As to `Nc1nc2c(ncn2[C@@H]2O[C@H](COP(=O)(O)O)[C@@H](O)[C@H]2O)c(=O)[nH]1`, the pKi in series [16] is 3.28. On to `CC(=O)N[C@H]1CN[C@H](CO)[C@H](O)[C@@H]1O`, for which the pKi in series [17] is 7.29.

As to `O=C(O)C[C@H](C(=O)O)[C@@H](O)C(=O)O`, on isocitrate dehydrogenase, the pKi is 3.72. In the case of `CC(/C=C/C=C(\C)c1cc(C(C)(C)C)cc(C(C)(C)C)c1)=C\C(=O)O`, the pKi in series [18] is 6.80. `CC[C@H](C)[C@H](NC(=O)[C@H](C(C)C)[C@@H](O)[C@H](O)[C@H](CC1CCCCC1)NC(=O)[C@H](Cc1cnc[nH]1)NC(=O)COc1cccc2ccccc12)C(=O)NCc1ccccn1`: the pKi in [19] was over 9.00.

Usually pKi stands for −log10 of the Ki, conventionally taken in molar units.
